The results in this text go back to US9616056B2, “Inhibition of leukotriene synthesis and activity in the treatment of sonic hedgehog-associated medulloblastoma” (Institute for Cancer Research, priority 2013, dated 2017).

For assay [1], the system named is tumor cells isolated from Math1-Cre/Ptch1^C/C animals (MB cells). Briefly: Tumor cell proliferation in vitro by Ki67 immunostaining. The format is cell-based, mouse. The note with it: 48 hrs; 5 μM MK886, 3 μg/ml cyclopamine, 10 μM NDGA, 20 μM Zileuton, 50 μM Montelukast, 50 μM Zafirlukast (FIG. 6).
In assay [2] the test system is wildtype GNPs (normal granule neuron precursors). To be noted: 48 hrs; 20 ng/ml recombinant Shh added; 5 μM MK886, 3 μg/ml cyclopamine, 10 μM NDGA, 20 μM Zileuton, 50 μM Montelukast, 50 μM Zafirlukast (FIG. 6).

`CC1=C2C[C@H]3[C@@H](CC=C4C[C@@H](O)CC[C@@]43C)[C@@H]2CC[C@]12O[C@@H]1C[C@H](C)CN[C@H]1[C@H]2C` [cyclopamine]: the “tumor cell proliferation (Ki67)” value in assay [1] was “dramatically prevented the proliferation”. Moreover, the “GNP proliferation (Ki67)” value in assay [2] is given as “dramatically prevented the proliferation”.
